Data on 4 substances can be found in publication PMC11395566, “Novel Copper (II) Complexes with Fluorine-Containing Reduced Schiff Base Ligands Showing Marked Cytotoxicity in the HepG2 Cancer Cell Line” (International Journal of Molecular Sciences, 2024).

The target of this experiment is Jack bean urease (Canavalia ensiformis, UniProt P07374). The note with it: read-out: Urease inhibition IC50 ± SD, 15 min pre-incubation.
Take “Dichloro[(±)-trans-N,N′-bis-(4-trifluoromethylbenzyl)-cyclohexane-1,2-diamine]copper (II) [Cu-L12]”: the IC50 was 4.01 ± 0.84 µM.

For “Dichloro[(±)-trans-N,N′-bis-(4-fluorobenzyl)-cyclohexane-1,2-diamine]copper (II) [Cu-L11]”, the IC50 came to 2.7 ± 1.09 µM. The value for “Dichloro[(±)-trans-N,N′-bis-(3,5-bis-trifluoromethylbenzyl)-cyclohexane-1,2-diamine]copper (II) [Cu-L14]” was 2.05 ± 0.34 µM; that for “Dichloro[(±)-trans-N,N′-bis-(3,5-difluorobenzyl)-cyclohexane-1,2-diamine]copper (II) [Cu-L13]” was 3.47 ± 0.88 µM.

By IC50 is commonly meant the point on the concentration scale where inhibition reaches its midpoint.
